Experimental data from patent publication US6359134B1.

Chains of the proteins cited; added tags and fusions are not shown. Residues count along the entry.
UniProt P00742, 235-488 limits assumed: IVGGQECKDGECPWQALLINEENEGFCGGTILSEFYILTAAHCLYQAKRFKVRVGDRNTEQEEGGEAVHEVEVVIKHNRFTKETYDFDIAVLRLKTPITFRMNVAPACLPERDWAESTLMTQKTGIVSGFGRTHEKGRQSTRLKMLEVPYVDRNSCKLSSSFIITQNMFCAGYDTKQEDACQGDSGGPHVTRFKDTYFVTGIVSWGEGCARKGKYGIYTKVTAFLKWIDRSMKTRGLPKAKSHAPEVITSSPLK
UniProt P00742, 41-179 partner limits assumed: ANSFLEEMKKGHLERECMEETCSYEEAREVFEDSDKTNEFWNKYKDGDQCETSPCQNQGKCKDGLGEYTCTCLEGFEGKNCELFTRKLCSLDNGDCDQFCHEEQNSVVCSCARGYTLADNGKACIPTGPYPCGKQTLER

Target: human FXa (Homo sapiens, UniProt P00742)
Assay: Inhibitory effect on human activated coagulation factor X (FXa)
Settings: human FXa (0.3 unit/ml), substrate S-2765, 37° C., absorbance at 405 nm
Description: Inhibitory effect on human activated coagulation factor X (FXa)
In 0.05M Tris buffer solution (pH 8.3) 225 μl containing 0.145 M sodium chloride and 2 mM calcium chloride, test compound dissolved in dimethyl-sulfoxide 5 μl and human FXa (0.3 unit/ml) 10 μl were reacted at 37° C. for 10 minutes. To the reaction solution was added substrate (3 mM, S-2765) 10 μl and the mixture was further reacted at 37° C. for 10 minutes. To the reaction solution was added 50% acetic acid aqueous solution 25 μl to stop the reaction.
IC50 values (concentration of the test compound which inhibits 50% of FXa activity) were calculated by measuring change of absorbance at 405 nm with microplate reader (MTP-32, Corona Electric).

- pIC50: 7.72
Structure (SMILES): Cc1nc(-c2ccncc2)sc1C(=O)N1CCN(S(=O)(=O)c2ccc3cc(Cl)ccc3c2)CC1

pIC50: −log10 of the molar value.
